Literature values in publication PMC8155967, “Investigating the Potential of Transdermal Delivery of Avanafil Using Vitamin E-TPGS Based Mixed Micelles Loaded Films” (Pharmaceutics, 2021).

D-α-Tocopherol polyethylene glycol 1000 succinate [TPGS]
hydrophile/lipophile balance (HLB) value: 13.2 | critical micelle concentration (aqueous media): 0.02 w/w%
